Source: publication PMC3817851, “Enzyme activity effects of N-terminal His-tag attached to catalytic sub-unit of phosphoinositide-3-kinase” (Bioscience Reports, 2013)

Amino acid sequences for entries named in this document (tags omitted). A change or cut given only in a name is not applied to a line headed by its entry.
UniProt P42338: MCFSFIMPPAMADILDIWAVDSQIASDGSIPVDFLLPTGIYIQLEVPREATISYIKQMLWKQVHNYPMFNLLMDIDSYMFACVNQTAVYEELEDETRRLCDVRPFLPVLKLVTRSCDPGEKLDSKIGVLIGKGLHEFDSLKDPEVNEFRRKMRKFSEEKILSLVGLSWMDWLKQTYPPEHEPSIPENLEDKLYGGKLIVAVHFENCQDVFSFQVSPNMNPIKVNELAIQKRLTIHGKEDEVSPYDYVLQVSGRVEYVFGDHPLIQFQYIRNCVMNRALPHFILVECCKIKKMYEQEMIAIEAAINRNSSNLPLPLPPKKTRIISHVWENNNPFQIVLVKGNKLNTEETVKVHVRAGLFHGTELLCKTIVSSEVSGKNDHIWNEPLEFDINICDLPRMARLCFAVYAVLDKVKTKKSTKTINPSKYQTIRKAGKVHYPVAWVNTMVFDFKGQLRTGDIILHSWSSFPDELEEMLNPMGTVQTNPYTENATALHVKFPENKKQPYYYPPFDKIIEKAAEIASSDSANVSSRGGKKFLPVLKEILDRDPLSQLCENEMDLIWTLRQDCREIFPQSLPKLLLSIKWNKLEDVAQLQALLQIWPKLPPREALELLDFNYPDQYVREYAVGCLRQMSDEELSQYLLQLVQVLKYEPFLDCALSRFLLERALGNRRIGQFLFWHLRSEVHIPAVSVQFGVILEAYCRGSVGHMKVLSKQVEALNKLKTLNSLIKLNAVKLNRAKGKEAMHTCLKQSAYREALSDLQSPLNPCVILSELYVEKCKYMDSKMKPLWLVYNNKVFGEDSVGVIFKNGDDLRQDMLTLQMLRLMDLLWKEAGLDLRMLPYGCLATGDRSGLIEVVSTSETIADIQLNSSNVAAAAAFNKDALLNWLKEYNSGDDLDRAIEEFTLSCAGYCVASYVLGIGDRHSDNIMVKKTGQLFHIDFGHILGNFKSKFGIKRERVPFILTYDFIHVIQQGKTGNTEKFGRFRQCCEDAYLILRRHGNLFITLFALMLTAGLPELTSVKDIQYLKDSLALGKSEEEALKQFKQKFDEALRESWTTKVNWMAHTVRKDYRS

Target: T1, p110β (PI 3-Kβ, p110β/p85α) (Homo sapiens, UniProt P42338)
T1 construct: gene PIK3CB; full-length p110β with N-His6-rTEV tag (tag removed by rTEV) co-expressed with full-length p85α; baculovirus/Sf9; IMAC, MonoQ; heterodimer; with Phosphatidylinositol 3-kinase regulatory subunit alpha
Test: HTRF lipid kinase assay
Assay type: biochemical
Details: […] ATP, PI([…])P2 substrate, His-tag removed
Source text: HTRF lipid kinase assay on p110β (PI 3-Kβ, p110β/p85α)

Cc1cc(C(C)Nc2ccccc2)c2nc(N3CCOCC3)cc(=O)n2c1 (stereo not shown) [TGX-221]
pIC50: 7.96

pIC50: −log10 of the molar value.
